Test results taken from US12691096B2, “Drug-controlled systems and uses thereof” (TRUSTEES OF BOSTON UNIVERSITY, priority 2020, dated 2026).

Columns and labels:
dNS3-Cre-PHI = dNS3-Cre-PHI (Hepatitis C virus genotype 1b, UniProt P26663, A1092G/F1173S/K1113A/P1112Q/S1165A); settings: catalytic NS3 S139A mutation (dNS3)
Excerpt: (§1) For Cre recombinase control in mammalian cells, live cells were gated in the same manner as above and gated for transfection by either a co-transfection marker of pmiRFP670-N1 or inter-plasmatic constitutive expression of iRFP670 under a separate constitutive promoter. Cells were further deemed as GFP positive if their fluorescence intensity was greater than or equal to the top 1% of non-transfected cells. Baseline activation of GFP positive cells was then subtracted using transfection marker only cells as baseline for all measurements.

[1] = biological target: asunaprevir inducible (AI) NS3 (Hepatitis C virus genotype 1b, UniProt P26663, S1148G/T1080A/V1062M); settings: asunaprevir (1 pM); flow cytometry 48 hours post-drug addition
Excerpt: To accomplish this, it was sought to make orthogonal inducible Cre recombinases.
as §1

C=C[C@@H]1C[C@]1(NC(=O)[C@@H]1C[C@@H](Oc2ncc(OC)c3ccc(Cl)cc23)CN1C(=O)[C@@H](NC(=O)OC(C)(C)C)C(C)(C)C)C(=O)NS(=O)(=O)C1CC1 [asunaprevir]
Effect of NS3 S139A mutation alone on drug induction of Cre (dNS3-Cre-PHI): retaining asunaprevir induction | Induction of Cre recombination, asunaprevir inducible (AI) construct [1]: strongly induced
